Apparent affinities of Ab-14 variants for a coronavirus HR2 peptide

Data: MIT Lincoln Laboratory AlphaSeq set, Li et al. 2023, doi:10.1038/s41467-023-39022-2, as distributed in FLAb.

Binding partner: SARS-CoV-2 spike HR2 peptide, sequence PDVDLGDISGINAS.

The variants keep the heavy chain, the linker and the frameworks of Ab-14 (scFv order VH, a (GGGGS)3 linker, VL).
VH: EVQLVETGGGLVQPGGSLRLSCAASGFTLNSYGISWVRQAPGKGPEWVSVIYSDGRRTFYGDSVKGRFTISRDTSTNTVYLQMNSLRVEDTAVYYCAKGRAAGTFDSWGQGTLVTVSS
VL: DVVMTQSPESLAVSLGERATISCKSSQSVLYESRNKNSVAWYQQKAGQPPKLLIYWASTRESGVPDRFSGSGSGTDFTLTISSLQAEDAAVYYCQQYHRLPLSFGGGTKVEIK

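Phage display of a naive human antibody library on the peptide gave the parent. Designed CDR sequences, proposed from the first random library and measured here. Group labels follow the data file (En: ensemble of fine-tuned language models; GP: Gaussian process model; HC: hill climbing; Gen: genetic algorithm; Gibbs: Gibbs sampling; a sequence that several methods proposed may carry one label only). Affinity was read by AlphaSeq, a pooled yeast mating assay with surface-displayed partners. The frequency of each diploid, read from paired DNA barcodes, reflects how well the two displayed proteins bind. The ratio of observed to expected reads was calibrated, replicate by replicate, on BCL2-family standards whose Kd was known from biolayer interferometry. Mating was done six times.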

Each variant is given by its three light chain CDRs, as the data file delimits them; those of the parent are KSSQSVLYESRNKNSVA, WASTRES, QQYHRLPLS. This list holds designs with more than six substitutions. Values are apparent Kd, the geometric mean of the replicates that gave a signal; lower means stronger binding. Where no diploid with the target was found in any replicate, the entry reads "no signal": below detection, most likely a poor binder, though not proof of it. In the paper, a design with two or fewer of six values counts as a poor binder. The range of this assay differs from that of the first round, and the authors advise against merging the two. As a blank, each scFv also met three strains without target: over all light chain designs, 4% of these pairings were detected, typically at 430 nM and seldom below 38 nM. Also given: how often the same scFv was detected with the empty control strains. Of ten entries with the parent sequence, four were seen in most replicates (averages 2.2 nM to 240 nM), three in one and three in none, so single entries are noisy.

CDR-L1,CDR-L2,CDR-L3,group,Kd (apparent),seen in,control signals
KLRQMTLTEGYFKNSVA,QASTRAN,QSYHRLPLS,En_HC,16 nM,6 of 6,1 of 18
KLYQMMGYLSRNKNSIA,DMSRRES,QQYHRLPLS,En_HC,3.2 nM,6 of 6,2 of 18
KLSNVTHSESRNKNSIA,EMVTREV,QQYDRLPLS,En_HC,15 nM,6 of 6,1 of 18
HISPMQAMHYEAKNQVA,ETEVKYN,QQYIRLPLS,En_Gibbs,8.5 nM,6 of 6,0 of 18
MVNTNLVHQANRDNNIA,EAQMVAA,QDYDRLPLI,En_Gibbs,230 nM,2 of 6,0 of 18
MISALTMYGSRNKNSVA,DLSTRGS,QQYHRLPLS,En_HC,2.8 nM,6 of 6,0 of 18
KSSGSVMGEDMNKNSVA,HASQRES,QQYHRLPLM,GP_Gibbs,1.8 nM,6 of 6,3 of 18
KLSLFYRVETRNTNSVA,DNSTRES,QDYDRLPLS,En_HC,no signal,0 of 6,2 of 18
KVDMGELPNGFNRSSVA,QAEVRAP,QQYWQLPLE,En_Gibbs,17 nM,6 of 6,1 of 18
TLSQVTHSESRNKNSIA,EMVTREV,QQYDRLPLS,En_HC,4.7 nM,6 of 6,1 of 18
KLSQSQLYLSRNMNAVA,NASQRLS,QQYHRLPLS,GP_Gibbs,620 pM,6 of 6,0 of 18
KLRQVTGYMEYNKNSVA,QTSTRVS,QDYHRLPLS,En_HC,6.9 nM,6 of 6,4 of 18
KSSDSVDYEDRNSNSVA,NASQRLW,QQYHRLPLS,GP_Gibbs,7.3 nM,6 of 6,2 of 18
KMQQLWWYEQRNKNSVA,DGSTRES,QQYHRLPLS,GP_Gibbs,430 pM,6 of 6,0 of 18
KISQMVWYESTWWNAIA,QTSEREE,QQYHRLPLS,En_HC,11 nM,6 of 6,1 of 18
HMSMLTLGGQRHRNAVA,QMTTREN,QQYDRLPLT,En_Gen,25 nM,6 of 6,1 of 18
KLTNITGTEKVKGNNVA,EMETREE,QQYNRLPLS,En_Gen,3.0 nM,6 of 6,1 of 18
MITEGQLGENKNSSNIA,SQNIKTD,QQYQRLPLT,En_Gibbs,3.9 nM,6 of 6,2 of 18
KLMEQALYESRNKNSVA,QASTRED,QQYHRLPLS,GP_Gibbs,1.2 nM,6 of 6,0 of 18
TIQQMMSLFTQTINNVA,EVSTRLN,QQYDRLPLA,En_Gen,41 nM,6 of 6,0 of 18
KMSSSWMQEERNKNSVA,QASQREQ,QQYHRLPLS,GP_Gibbs,670 pM,6 of 6,2 of 18
MISESVMYESRNRNNVA,DHSTRED,QCYDRLPLS,En_HC,160 pM,6 of 6,0 of 18
KVSVGGLYEQRQKNSVA,NASYRES,QQYHRLPLS,GP_Gibbs,1.6 nM,6 of 6,1 of 18
MISQLYNMGTFAINSVA,QASIRNE,QQYDRLPLS,En_Gen,43 nM,6 of 6,0 of 18
MIHESMGLMSHKQSSIA,DNSTREE,QQYDRLPLS,En_Gen,830 nM,2 of 6,1 of 18
MFSQMLMLGTKAKNSVA,QASMRFN,QQYHRLPLI,En_Gen,2.1 nM,5 of 6,0 of 18
MISQLYNMGQFAINSVA,QASLRCN,QQYFRLPLE,En_Gen,16 nM,5 of 6,0 of 18
QLSGPMVMESKNKNSVA,EFSTRGS,QQYHRLPLS,En_HC,65 nM,3 of 6,0 of 18
KLQQQVQYESRNWNSVA,NASDRQS,QQYHRLPLS,GP_Gibbs,2.0 nM,6 of 6,0 of 18
KLSSFHGVESINKSNVA,EMVTRES,QQYDRLPLS,En_HC,17 nM,6 of 6,0 of 18
KLSLFYRVETMQKNSVA,DNSTRES,QDYDRLPLS,En_HC,1.6 µM,2 of 6,0 of 18
VFSGLFQGDEQQYNSIA,EASLSNT,QQYISLPLS,En_Gibbs,25 nM,1 of 6,0 of 18
NLVGRVEDNQTENNAIA,DMHCRAG,QQYSRLPLS,En_Gibbs,71 nM,6 of 6,1 of 18
HMSFLTLQGQRHKNSVA,QMTTREN,QQYDHLPLS,En_Gen,7.6 nM,6 of 6,1 of 18
KLTMITGLEKVTKNQVA,EMETREK,QQYNRLPLS,En_Gen,1.7 nM,6 of 6,0 of 18
KLMQEDEYQSRMKNSVA,HASERES,QQYHRLPLS,GP_Gibbs,1.1 nM,6 of 6,0 of 18
KLESRQYHFGANHQNIA,DATDSMN,QQYMHLPFT,En_Gibbs,1.3 nM,6 of 6,1 of 18
KISQMARVGQTHGNSIA,EEATRAK,QQYHRLPLA,En_Gen,23 nM,6 of 6,0 of 18
KLEQGVDMESRNKNSVA,HASMRES,QQYHRLPLS,GP_Gibbs,1.2 nM,6 of 6,4 of 18
SLHMYTLTEKNANNSIA,EKSYRAI,QQYSHLPLV,En_Gibbs,75 nM,6 of 6,2 of 18
KQEQSVMLESRWKNSVA,NASTRMS,QQYHRLPLS,GP_Gibbs,3.0 nM,6 of 6,0 of 18
KLDSQYQHGTNQKKAMA,DSSVSTQ,QQYSRLPLS,En_Gibbs,1.1 nM,6 of 6,2 of 18
TLQDWGIYGMENMNRIA,ERSKLEM,QQYFRLPLS,En_Gibbs,2.6 nM,6 of 6,0 of 18
KLSMVTNQEHKVKNSIA,EMVTREK,QQYDRLPLV,En_HC,5.6 nM,6 of 6,1 of 18
QLEFYDVQGTANWHAIA,EGSQLGQ,QQYFHLPLG,En_Gibbs,17 nM,5 of 6,3 of 18
KLMCSMEYESRNKNSVA,NASTREM,QQYHRLPLV,GP_Gibbs,1.5 nM,6 of 6,0 of 18
KLSNSFLYESRQKNSVA,EASQREM,QQYHRLPLS,GP_Gibbs,530 pM,6 of 6,1 of 18
TISQMTSLFSQTINNVA,EVSTREE,QQYDRLPLA,En_Gen,2.1 nM,6 of 6,0 of 18
KLDQSDLMESRNWNAVA,QASTREI,QQYHRLPLS,GP_Gibbs,810 pM,6 of 6,0 of 18
KIGMTLNQLLEKKNNVA,DLVHREN,QQYHRLPLS,En_Gen,2.4 nM,6 of 6,0 of 18
MISQVMNTLTREGNNVA,DLTEREK,QQYFRLPLS,En_Gen,8.4 nM,6 of 6,0 of 18
KLDQSWWREWRNKNSVA,QASTREQ,QQYHRLPLS,GP_Gibbs,4.0 nM,6 of 6,0 of 18
TISQMLLMQTSHKNNVA,GEETRYN,QQYHRLPLS,En_HC,10 nM,6 of 6,0 of 18
QMRLMYENSGHRMNSIA,DETMKPD,QQYVRLPLH,En_Gibbs,3.6 nM,6 of 6,2 of 18
MISQSFMIGMKAKNSVA,QTNTREE,QQYDRLPLI,En_HC,17 nM,6 of 6,0 of 18
TLSQMSGVEAVKHNNVA,ENSTREK,QQYDRLPLS,En_Gen,1.1 µM,2 of 6,1 of 18
NLNDSEMQMPQMTSNIA,QTTLRNL,QQYAKLPLS,En_Gibbs,1.8 nM,6 of 6,2 of 18
KVKNMMHQMGTQHQNIA,DMAIKCD,QQYQRLPLH,En_Gibbs,890 pM,6 of 6,0 of 18
KLRVSTAYLSENKNSVA,ELSTRGS,QQYFRLPLS,En_HC,2.5 nM,6 of 6,0 of 18
KLYQNVGTMAHNKQSIA,DMERRED,QQYHRLPLS,En_HC,2.5 nM,6 of 6,2 of 18
TLSQMSGVESVKHNNVA,ENSTREK,QQYDRLPLA,En_Gen,190 nM,1 of 6,1 of 18
KLQQSMLYESRNDNSVA,HASMRES,QQYHRLPLF,GP_Gibbs,2.9 nM,6 of 6,0 of 18
KIQLGLSRYNGDYSSVA,NETQKGD,QQYFQLPLG,En_Gibbs,5.9 nM,6 of 6,3 of 18
NIYQAMHTLSQMKDNVA,DVNERGM,QQYFRLPLS,En_Gen,1.4 nM,6 of 6,1 of 18
NLYQSMNFLGRVMNSIA,DASTIGD,QQYHRLPLS,En_HC,3.8 nM,6 of 6,0 of 18
KLTIMGLHQSIDKKSIA,ERSTREN,QQYHRLPLS,En_HC,9.6 nM,6 of 6,0 of 18
KVLQEMLYESRMANSVA,NASQRES,QQYHRLPLS,GP_Gibbs,3.2 nM,6 of 6,2 of 18
KLSISYLFQSQEKNSIA,ENSTREK,QHYHRLPLS,En_HC,440 nM,1 of 6,0 of 18
KLSQSNLYEERNKNNVA,SASQREM,QQYHRLPLS,GP_Gibbs,250 pM,6 of 6,1 of 18
QLQLQPLFGANAQSSIA,DVSEKDM,QQYARLPLH,En_Gibbs,7.4 nM,6 of 6,0 of 18
KSEGQVCYGDRNKNSVA,NASLREQ,QQYHRLPLS,GP_Gibbs,1.3 nM,6 of 6,1 of 18

The closing 4 entries, repeated:

CDR-L1,CDR-L2,CDR-L3,group,Kd (apparent),seen in,control signals
KLSISYLFQSQEKNSIA,ENSTREK,QHYHRLPLS,En_HC,440 nM,1 of 6,0 of 18
KLSQSNLYEERNKNNVA,SASQREM,QQYHRLPLS,GP_Gibbs,250 pM,6 of 6,1 of 18
QLQLQPLFGANAQSSIA,DVSEKDM,QQYARLPLH,En_Gibbs,7.4 nM,6 of 6,0 of 18
KSEGQVCYGDRNKNSVA,NASLREQ,QQYHRLPLS,GP_Gibbs,1.3 nM,6 of 6,1 of 18